Settings: viloxazine ER 900 mg qd, steady state

CCOc1ccccc1OCC1CNCCO1 (stereo not drawn) [viloxazine]
AUC24 ratio PMs/EMs (geometric means) (CYP2D6 PMs vs EMs): 125.66 (105.36–149.87) %
Cmax ratio PMs/EMs (geometric means) (CYP2D6 PMs vs EMs): 120.70 (102.33–142.37) %
increase in viloxazine exposure in CYP2D6 PMs relative to EMs: < 1.5 fold

From article PMC11088557 (Clinical Drug Investigation, 2024)
